Measured values reported in US7183251B1, “hCG therapy for the treatment of breast cancer” (Fox Chase Cancer Center, priority 1998, dated 2007).
“Also recorded” adds a separate entry of the source.

Experiment: r-hCG in primary breast cancer: serum hormone levels by RIA
Format: in vivo, human
Details: for serum levels of FSH, estradiol, inhibin, progesterone (b94 also LH): days 0, 5, 9, 13 of treatment
Description: Specimen Collection and Post-Surgical Treatment. After informed consent, the patient underwent core biopsies of the primary tumor under local anesthesia with a pistol fitted with a 12 to 14 gauge tru-cut type biopsy needles (Bard, Covington, USA). This procedure represents the standard of care, therefore no departure from routine diagnostic procedures was required. The core needle biopsy was examined by frozen section technique. If the frozen section was positive for malignancy, then three additional needle biopsies were obtained from the tumor for evaluating the surrogate markers listed below. On the same day 0 (pretreatment) a serum sample was taken for determination of basal levels of inhibin, estrogen, progesterone, FSH, LH and the beta subunit of hCG. The serum sample, as was the case for all subsequent sera, was derived from the blood sample and frozen immediately at −70° C. until the day of shipment to the research laboratory. The other serum samples were obtained at days 5, 9 and 13. At day 15 of hCG treatment the patient underwent surgery, which consisted of mastectomy when the tumoral mass (including ‘in situ’ components) was considered to be larger than 3 cm; otherwise the breast was conserved and a lumpectomy was performed. Breast conservation was only practiced when the surgical margins were free of disease. Lymph node dissection of the axilla was routineously performed. All resected tissues was sent to the laboratory of pathology for microscopical examination.
The systemic effects of this hormonal treatment was evaluated by determining serum levels of the pituitary hormones FSH and LH, and the ovarian hormones estrogen, progesterone, and inhibin as markers of hCG activity. Ten ml of blood were drawn on days 0, 5, 9 and 13 of treatment, from 26 patients. The serum was separated immediately upon drawing, frozen at −80° C. and the specimens were identified with the patient trial number, date, and sequence in the number in the treatment. The sera were shipped from Belgium to the clinical laboratory in dry ice by express mail. All specimens were identified upon arrival at the laboratory by experiment number and an accession number which was sequentially assigned by date of arrival.
Frozen serum samples were shipped to InterScience Institute (ISI), Inglewood, Calif., for radio immunoassay (RIA) quantitative determination of levels of the following hormones: hCG beta subunit, estradiol, progesterone, FSH; LH; and inhibin. Quantitative determination of beta-hCG was confirmed by SmithKline—Beechman Clinical Laboratories in Philadelphia, Pa.

r-hCG: recombinant human chorionic gonadotropin, glycoprotein hormone composed of two non-covalently linked (α and β) subunits
serum levels of FSH, estradiol, inhibin, progesterone (b94 also LH): Neither the r-hCG nor the placebo treatments modified | serum levels of FSH, estradiol, inhibin, progesterone (b94 also LH) (listed as R-hCG): did not modify | serum level of LH (r-hCG over placebo, any time point sampled): no statistically significant increase | serum level of b-hCG (vs placebo at 5, 9 and 13 days of treatment (p<0.0001, P<0.004, p<0.007)): significant difference; also recorded: elevated
